This experiment has as its target human epidermal growth factor receptor (EGFr), on cells (human) (UniProt P00533). The experiment in a line: cell-based or functional assay.

Turning to “anti-EGFr wild type (fully human recombinant IgG2 monoclonal antibody, mAb E7.6.3)”, the IC50, luciferase reporter gene expression assay turned out to be 0.087 µg/mL and the Specific Activity (Weighted Mean), EGFr reporter gene expression assay stood at 98%.

The values are drawn from patent publication US20250346662A1.
